Results published in patent US11912693B2, “Compounds for modulating S1P1 activity and methods of using the same” (TREVENA, INC., priority 2017, dated 2024).

Amino acid sequences for entries named in this document (tags omitted).
UniProt P21453, whole entry: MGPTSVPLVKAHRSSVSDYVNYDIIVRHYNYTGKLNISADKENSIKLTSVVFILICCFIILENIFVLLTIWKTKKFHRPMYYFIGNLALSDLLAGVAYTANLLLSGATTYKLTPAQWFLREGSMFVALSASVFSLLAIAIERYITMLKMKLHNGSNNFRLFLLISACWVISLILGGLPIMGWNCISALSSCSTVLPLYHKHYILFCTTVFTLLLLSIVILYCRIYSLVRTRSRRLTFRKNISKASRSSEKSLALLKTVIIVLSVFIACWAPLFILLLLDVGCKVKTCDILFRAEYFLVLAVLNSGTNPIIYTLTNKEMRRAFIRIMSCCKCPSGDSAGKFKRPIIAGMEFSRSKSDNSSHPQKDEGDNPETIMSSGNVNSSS

Columns and labels:
[1] = biological target: T1, human sphingosine-1-phosphate receptor 1 (S1P1) (Homo sapiens (Human), UniProt P21453); assay: β-Arrestin2 recruitment assay (PathHunter), S1P1 CHO-K1 cells
[2] = test system: paclitaxel induced peripheral neuropathy; assay: Reversal of allodynia induced by paclitaxel in mice (s.c. or p.o., von Frey frequency method); assay type: in vivo, c57bl/6 mice; conditions: 3 mg/kg p.o., tested 60 min after dosing
Description: Compounds were tested for efficacy in mouse models of chemotherapy induced peripheral neuropathy. […] For these studies […]/6 mice are habituated to the test environment and baseline measurements of pain sensitivity are assessed. To determine mechanical responses, the threshold for responses to punctate mechanical stimuli (mechanical hyperalgesia) was tested according to the frequency method. In brief, the plantar surface of the animal hindpaw was stimulated with a single von Frey monofilament (0.4 g) for approximately 1-2 seconds. If there was a withdrawal response, it was recorded as a positive response. A response was defined as a lifting or shaking of the paw upon stimulation. This was repeated ten times for each mouse. The final measurement for each mouse is the % non-response to stimulation for the ten trials. The % non-response to stimulation is converted to a % MPE. For paclitaxel induced peripheral neuropathy, a series of injections of PAC (6 mg/kg, i.p.) on days 1, 3, 5 and 7 is used to induce peripheral neuropathy. After approximately 14 days from the initiation of PAC injections, animals are re-assessed for mechanical sensitivity. […] After approximately 14 days from the initiation of PAC injections, animals are re-assessed for mechanical sensitivity. […]

[3] = biological target: T1, human sphingosine-1-phosphate receptor 1 (S1P1); assay: Inhibition of cAMP production (HTRF cAMP HiRange), S1P1 CHO-K1 cells
[4] = efficacy (SPAN) normalized to fingolimod

hS1P1 B-arrestin2 SPAN [1, 4]: >75
hS1P1 B-arrestin2 pEC50 ([1]; β-arrestin2 recruitment, S1P1 CHO-K1 cells): >5
hS1P1 cAMP SPAN [3, 4]: >75
hS1P1 cAMP pEC50 ([3]; inhibition of cAMP production, S1P1 CHO-K1 cells): >6.5
SMILES: N#Cc1cc(-c2nc(-c3ccc4[nH]cnc4c3)no2)ccc1NCC(F)(F)F
Screen @ 3 mg/kg po (% MPE) [2]: >50 % MPE
